Patent publication US20250195530A1, “POLQ INHIBITORS” (ASTRAZENECA AB, priority 2022, published 2025)

Protein sequences, listed by entry. Tags and fused reporters are not part of them. Residues count along the entry.
UniProt O75417, 1780-2590: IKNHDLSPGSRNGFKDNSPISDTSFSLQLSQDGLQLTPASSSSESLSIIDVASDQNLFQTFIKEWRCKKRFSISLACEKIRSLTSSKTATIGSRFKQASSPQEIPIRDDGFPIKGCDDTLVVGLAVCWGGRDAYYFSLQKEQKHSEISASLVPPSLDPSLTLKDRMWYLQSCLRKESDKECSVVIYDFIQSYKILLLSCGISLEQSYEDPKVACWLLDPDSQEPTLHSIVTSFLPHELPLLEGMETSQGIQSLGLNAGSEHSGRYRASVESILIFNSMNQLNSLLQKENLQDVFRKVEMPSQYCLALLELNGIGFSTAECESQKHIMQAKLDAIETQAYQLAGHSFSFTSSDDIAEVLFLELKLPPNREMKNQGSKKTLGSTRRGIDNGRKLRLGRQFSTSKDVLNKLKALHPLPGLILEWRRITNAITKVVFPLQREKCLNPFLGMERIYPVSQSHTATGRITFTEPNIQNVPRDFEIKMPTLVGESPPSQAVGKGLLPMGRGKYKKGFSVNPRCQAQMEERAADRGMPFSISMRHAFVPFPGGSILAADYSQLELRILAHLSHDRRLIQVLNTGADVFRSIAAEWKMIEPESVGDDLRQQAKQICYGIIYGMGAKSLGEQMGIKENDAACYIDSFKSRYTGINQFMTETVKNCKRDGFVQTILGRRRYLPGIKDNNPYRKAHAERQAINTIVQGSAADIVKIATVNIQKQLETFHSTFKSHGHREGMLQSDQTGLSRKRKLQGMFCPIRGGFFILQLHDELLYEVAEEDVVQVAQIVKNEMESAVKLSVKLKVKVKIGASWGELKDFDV

Target: isolated polymerase domain (I1780-V2590) of DNA polymerase theta (Polθ) (Homo sapiens (Human), UniProt O75417)
Test: biochemical

Row | SMILES | IC50
1 | Cc1ccnc(Cn2c(-c3ccc(OCCCN4CC[C@@H](O)C4)cc3Cl)nc3c(OC4(C)CC4)ncnc32)c1 [Example T592, (R)-1-(3-(3-chloro-4-(6-(1-methylcyclopropoxy)-9-((4-methylpyridin-2-yl)methyl)-9H-purin-8-yl)phenoxy)propyl)pyrrolidin-3-ol] | 5.01 nM
2 | Cc1cc(Cn2c(-c3ccc(CC(N)=O)cc3Cl)nc3c(OC4(C)CC4)ncnc32)ncn1 [Example T19, 2-(3-chloro-4-(6-(1-methylcyclopropoxy)-9-((6-methylpyrimidin-4-yl)methyl)-9H-purin-8-yl)phenyl)acetamide] | 631 nM
3 | Cc1ccnc(Cn2c(-c3ccc(C(=O)NCC(F)(F)F)cc3Cl)nc3c(OC4(C)CC4)ncnc32)c1 [Example T86, 3-chloro-4-(6-(1-methylcyclopropoxy)-9-((4-methylpyridin-2-yl)methyl)-9H-purin-8-yl)-N-(2,2,2-trifluoroethyl)benzamide] | 15.8 nM
4 | CC(CCOc1ccc(-c2nc3c(OC4(C)CC4)ncnc3n2Cc2cccc(F)c2F)c(Cl)c1)C(=O)O (single isomer, unassigned) [Example T261, 4-(3-chloro-4-(9-(2,3-difluorobenzyl)-6-(1-methylcyclopropoxy)-9H-purin-8-yl)phenoxy)-2-methylbutanoic acid] | 10 nM
5 | CC1(Oc2ncnc3c2nc(-c2ccc(CC(N)=O)cc2Cl)n3Cc2cc(F)ccc2C#N)CC1 [Example T79, 2-(3-chloro-4-(9-(2-cyano-5-fluorobenzyl)-6-(1-methylcyclopropoxy)-9H-purin-8-yl)phenyl)acetamide] | 10 nM
6 | Cc1ccnc(Cn2c(-c3ccc(OCC(=O)N4C[C@H]5C[C@@H](C4)O5)cc3Cl)nc3c(OC4(C)CC4)ncnc32)c1 [Example T550, rel-1-((1R,5S)-6-oxa-3-azabicyclo[3.1.1]heptan-3-yl)-2-(3-chloro-4-(6-(1-methylcyclopropoxy)-9-((4-methylpyridin-2-yl)methyl)-9H-purin-8-yl)phenoxy)ethan-1-one] | 10 nM
7 | COc1ccc(Cl)cc1Cn1c(-c2cccc(OCCCOCC(=O)O)c2Cl)nc2c(OC3(C)CC3)ncnc21 [Example U30, 2-(3-(2-chloro-3-(9-(5-chloro-2-methoxybenzyl)-6-(1-methylcyclopropoxy)-9H-purin-8-yl)phenoxy)propoxy)acetic acid] | 7.94 nM
8 | CC(=O)N1CCC(COc2ccc(-c3nc4c(OC5(C)CC5)ncnc4n3Cc3ccccc3)c(Cl)c2)CC1 [Example D1, 1-(4-((4-(9-benzyl-6-(1-methylcyclopropoxy)-9H-purin-8-yl)-3-chlorophenoxy)methyl)piperidin-1-yl)ethan-1-one] | 2 nM
9 | CC1(Oc2ncnc3c2nc(-c2ccc(OCCN4CC(O)C4)cc2Cl)n3Cc2cc(C(F)(F)F)ccn2)CC1 [Example T284, 1-(2-(3-chloro-4-(6-(1-methylcyclopropoxy)-9-((4-(trifluoromethyl)pyridin-2-yl)methyl)-9H-purin-8-yl)phenoxy)ethyl)azetidin-3-ol] | 3.16 nM
10 | C[C@@H](CCOc1ccc(-c2nc3c(OC4(C)CC4)ncnc3n2Cc2cc(Cl)ccc2C#N)c(Cl)c1)C(=O)O [Example U82, (S)-4-(3-chloro-4-(9-(5-chloro-2-cyanobenzyl)-6-(1-methylcyclopropoxy)-9H-purin-8-yl)phenoxy)-2-methylbutanoic acid] | 2.51 nM
11 | CC1(Oc2ncnc3c2nc(-c2ccc(OCC4(CC(=O)O)CC4)cc2Cl)n3Cc2ccccc2C#N)CC1 [Example U15, 2-(1-((3-chloro-4-(9-(2-cyanobenzyl)-6-(1-methylcyclopropoxy)-9H-purin-8-yl)phenoxy)methyl)cyclopropyl)acetic acid] | 10 nM
12 | CC1NCCN(CCOc2ccc(-c3nc4c(OC5(C)CC5)ncnc4n3Cc3ccccc3)c(Cl)c2)C1=O (single isomer, unassigned; isomer 1) [Example R13, 1-(2-(4-(9-benzyl-6-(1-methylcyclopropoxy)-9H-purin-8-yl)-3-chlorophenoxy)ethyl)-3-methylpiperazin-2-one (Isomer 1)] | 2.51 nM
13 | CC1(Oc2ncnc3c2nc(-c2ccc(OCCCN4CC[C@H](O)C4)cc2Cl)n3Cc2cc(Cl)ccn2)CC1 [Example T503, (S)-1-(3-(3-chloro-4-(9-((4-chloropyridin-2-yl)methyl)-6-(1-methylcyclopropoxy)-9H-purin-8-yl)phenoxy)propyl)pyrrolidin-3-ol] | 5.01 nM

Further molecules by falling IC50, results first:

Row | IC50 | SMILES
14 | 79.4 nM | Cc1nc(C)c(Cn2c(-c3ccc(CC(N)=O)cc3Cl)nc3c(OC4(C)CC4)ncnc32)s1 [Example T25, 2-(3-chloro-4-(9-((2,4-dimethylthiazol-5-yl)methyl)-6-(1-methylcyclopropoxy)-9H-purin-8-yl)phenyl)acetamide]
15 | 50.1 nM | Cc1ccnc(Cn2c(-c3ccc(C(=O)N4CCC(F)CC4)cc3Cl)nc3c(OC4(C)CC4)ncnc32)c1 [Example T419, (3-chloro-4-(6-(1-methylcyclopropoxy)-9-((4-methylpyridin-2-yl)methyl)-9H-purin-8-yl)phenyl)(4-fluoropiperidin-1-yl)methanone]
16 | 20 nM | Cc1ccnc(Cn2c(-c3cccc(CC(N)=O)c3Cl)nc3c(OC4(C)CC4)ncnc32)c1 [Example T56, 2-(2-chloro-3-(6-(1-methylcyclopropoxy)-9-((4-methylpyridin-2-yl)methyl)-9H-purin-8-yl)phenyl)acetamide]
17 | 12.6 nM | Cc1ccnc(Cn2c(-c3ccc(O[C@@H]4CCN(C(N)=O)C4)cc3Cl)nc3c(OC4(C)CC4)ncnc32)c1 [Example T344, (R)-3-(3-chloro-4-(6-(1-methylcyclopropoxy)-9-((4-methylpyridin-2-yl)methyl)-9H-purin-8-yl)phenoxy)pyrrolidine-1-carboxamide]
18 | 10 nM | CC1(Oc2ncnc3c2nc(-c2ccc(OCCN4CCNCC4C(F)F)cc2Cl)n3Cc2ccccc2)CC1 (stereo not shown) [Example T567, 9-benzyl-8-(2-chloro-4-(2-(2-(difluoromethyl)piperazin-1-yl)ethoxy)phenyl)-6-(1-methylcyclopropoxy)-9H-purine]
19 | 10 nM | Cc1ccnc(Cn2c(-c3ccc(OCC(=O)N(C)C4COC4)cc3Cl)nc3c(OC4(C)CC4)ncnc32)c1 [Example T480, 2-(3-chloro-4-(6-(1-methylcyclopropoxy)-9-((4-methylpyridin-2-yl)methyl)-9H-purin-8-yl)phenoxy)-N-methyl-N-(oxetan-3-yl)acetamide]
20 | 7.94 nM | Cc1ccnc(Cn2c(-c3ccc(N4CCC4=O)cc3Cl)nc3c(OC4(C)CC4)ncnc32)c1 [Example T95, 1-(3-chloro-4-(6-(1-methylcyclopropoxy)-9-((4-methylpyridin-2-yl)methyl)-9H-purin-8-yl)phenyl)azetidin-2-one]
21 | 7.94 nM | CN(C)CCOc1ccc(-c2nc3c(OC4(C)CC4)ncnc3n2Cc2cc(Cl)ccn2)c(Cl)c1 [Example T135, 2-(3-chloro-4-(9-((4-chloropyridin-2-yl)methyl)-6-(1-methylcyclopropoxy)-9H-purin-8-yl)phenoxy)-N,N-dimethylethan-1-amine]
22 | 7.94 nM | Cc1cnc(Cn2c(-c3ccc(OC4CC5(CNC5)C4)cc3Cl)nc3c(OC4(C)CC4)ncnc32)s1 [Example T215, 2-((8-(4-((2-azaspiro[3.3]heptan-6-yl)oxy)-2-chlorophenyl)-6-(1-methylcyclopropoxy)-9H-purin-9-yl)methyl)-5-methylthiazole]
23 | 7.94 nM | Cc1cccc(C)c1Cn1c(-c2ccc(OCCC(C)C(=O)O)cc2Cl)nc2c(OC3(C)CC3)ncnc21 (racemic) [Example T571, 4-(3-chloro-4-(9-(2,6-dimethylbenzyl)-6-(1-methylcyclopropoxy)-9H-purin-8-yl)phenoxy)-2-methylbutanoic acid]
24 | 6.31 nM | Cc1ccnc(Cn2c(-c3ccc(N4CCCNCC4)cc3Cl)nc3c(OC4(C)CC4)ncnc32)c1 [Example T384, 8-(2-chloro-4-(1,4-diazepan-1-yl)phenyl)-6-(1-methylcyclopropoxy)-9-((4-methylpyridin-2-yl)methyl)-9H-purine]
25 | 6.31 nM | CC(CCOc1ccc(-c2nc3c(OC4(C)CC4)ncnc3n2Cc2c(F)cccc2F)c(Cl)c1)C(=O)O (single isomer, unassigned) [Example T263, 4-(3-chloro-4-(9-(2,6-difluorobenzyl)-6-(1-methylcyclopropoxy)-9H-purin-8-yl)phenoxy)-2-methylbutanoic acid]
26 | 6.31 nM | CCNC(=O)Cc1ccc(-c2nc3c(OC4(C)CC4)ncnc3n2Cc2cc(C)ccn2)c(Cl)c1 [Example T213, 2-(3-chloro-4-(6-(1-methylcyclopropoxy)-9-((4-methylpyridin-2-yl)methyl)-9H-purin-8-yl)phenyl)-N-ethylacetamide]
27 | 6.31 nM | COc1ccccc1Cn1c(-c2ccc(OCCC(C)C(=O)O)cc2Cl)nc2c(OC3(C)CC3)ncnc21 (racemic) [Example U4, 4-(3-chloro-4-(9-(2-methoxybenzyl)-6-(1-methylcyclopropoxy)-9H-purin-8-yl)phenoxy)-2-methylbutanoic acid]
28 | 6.31 nM | Cc1ccnc(Cn2c(-c3ccc(OC4CNC4)cc3Cl)nc3c(OC4(C)CC4)ncnc32)c1 [Example T111, 8-(4-(azetidin-3-yloxy)-2-chlorophenyl)-6-(1-methylcyclopropoxy)-9-((4-methylpyridin-2-yl)methyl)-9H-purine]
29 | 5.01 nM | CC1(Oc2ncnc3c2nc(-c2cccc(OCCCC(=O)O)c2Cl)n3Cc2cccc(Cl)c2)CC1 [Example T157, 4-(2-chloro-3-(9-(3-chlorobenzyl)-6-(1-methylcyclopropoxy)-9H-purin-8-yl)phenoxy)butanoic acid]
30 | 5.01 nM | Cc1cccc(Cn2c(-c3ccc(OCCC(C)C(=O)O)cc3Cl)nc3c(OC4(C)CC4)ncnc32)c1C (racemic) [Example T570, 4-(3-chloro-4-(9-(2,3-dimethylbenzyl)-6-(1-methylcyclopropoxy)-9H-purin-8-yl)phenoxy)-2-methylbutanoic acid]
31 | 2.51 nM | Cc1ccnc(Cn2c(-c3ccc(C(=O)N4CC(N5CCCC5)C4)cc3Cl)nc3c(OC4(C)CC4)ncnc32)c1 [Example T602, (3-chloro-4-(6-(1-methylcyclopropoxy)-9-((4-methylpyridin-2-yl)methyl)-9H-purin-8-yl)phenyl)(3-(pyrrolidin-1-yl)azetidin-1-yl)methanone]
